## Ab-14 light chain CDR variants: yeast mating affinities

The target is the same throughout: PDVDLGDISGINAS, from the HR2 region of SARS-CoV-2 spike.

The variants keep the heavy chain, the linker and the frameworks of Ab-14 (scFv order VH, the linker GGGGSGGGGSGGGGS, VL).
VH: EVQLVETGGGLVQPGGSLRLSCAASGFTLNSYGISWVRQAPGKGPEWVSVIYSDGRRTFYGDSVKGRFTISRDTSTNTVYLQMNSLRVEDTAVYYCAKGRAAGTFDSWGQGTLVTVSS
VL: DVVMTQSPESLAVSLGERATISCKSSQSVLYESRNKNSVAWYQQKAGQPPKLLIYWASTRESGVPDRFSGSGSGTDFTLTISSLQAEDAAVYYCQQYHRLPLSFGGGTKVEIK

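Phage display of a naive human antibody library on the peptide gave the parent. In library AAYL50, one, two or three CDR residues were substituted; doubles and triples were drawn at random. The scFvs were displayed on barcoded MATa yeast, the peptide on MATalpha yeast. The frequency of each diploid, read from paired DNA barcodes, reflects how well the two displayed proteins bind. Each replicate has its own calibration line, from reference interactions of the BCL2 family. There are three technical replicates.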

Positions count from residue 1 of the parent VL; Q27C puts C in place of Q. Values are log10 of the apparent Kd in nM; lower means stronger binding. A mean of the replicates is given; it leaves out those without a signal. "n.d." marks a missing value. The strain was present, yet no cells mated with the target were sequenced in that replicate, which points to weak or no binding. Parent in this assay: reference entry 0.65, copy in this library 1.68. As a blank, each scFv also met three strains without target: over library AAYL50, 18% of these pairings were detected, typically at 4.19 and seldom below 2.99. For each scFv, signals with the empty controls are counted beside the result, with their mean in brackets.

| changes | log10 Kd (nM) by replicate | log10 Kd (nM), mean | signal with controls |
|---|---|---|---|
| Q27C V39E Y97C | n.d. n.d. n.d. | n.d. | 1/9 (3.60) |
| N35K Q96I | 5.26 n.d. n.d. | 5.26 | 0/9 |
| S26A S58F Q96H | n.d. n.d. n.d. | n.d. | 0/9 |
| N35Y P101Y S103A | 5.88 n.d. n.d. | 5.88 | 2/9 (3.86) |
| S33N T59A S103D | 1.30 1.31 1.47 | 1.36 | 1/9 (5.63) |
| S25R R34C N35V | 2.82 3.71 n.d. | 3.27 | 2/9 (4.36) |
| S38R H98W P101A | n.d. n.d. n.d. | n.d. | 0/9 |
| R60M Y97D L100E | 5.54 4.25 4.55 | 4.78 | 3/9 (4.34) |
| S38Y A40G A57G | n.d. n.d. n.d. | n.d. | 0/9 |
| N37Q V39A S62V | n.d. n.d. n.d. | n.d. | 0/9 |
| A57C S58Y S103F | n.d. n.d. n.d. | n.d. | 5/9 (4.73) |
| S28Q S33I P101K | n.d. n.d. 3.88 | 3.88 | 2/9 (4.46) |
| A57I L100R | n.d. n.d. n.d. | n.d. | 0/9 |
| Y31N V39K R60Y | n.d. 3.26 n.d. | 3.26 | 1/9 (4.84) |
| S38K A57F P101S | n.d. n.d. 4.60 | 4.60 | 1/9 (5.14) |
| K24M E61N | 1.86 1.88 1.89 | 1.88 | 0/9 |
| S38M V39A S103I | 4.31 n.d. n.d. | 4.31 | 3/9 (5.15) |
| R34W E61Q Q95T | n.d. n.d. n.d. | n.d. | 0/9 |
| T59L Q95Y L102W | n.d. n.d. n.d. | n.d. | 0/9 |
| E32V K36A L100Y | n.d. n.d. 3.21 | 3.21 | 1/9 (3.88) |
| L30W N37F S58W | 3.29 3.39 3.50 | 3.39 | 1/9 (4.73) |
| L30N N35L P101A | 0.87 1.11 1.12 | 1.03 | 1/9 (3.71) |
| L30G T59D Y97I | 3.00 3.23 3.31 | 3.18 | 3/9 (3.92) |
| S28Y S38H Q95E | 4.67 n.d. 3.89 | 4.28 | 2/9 (4.63) |
| Y31W R34Q P101N | n.d. n.d. n.d. | n.d. | 6/9 (4.28) |
| S62V L100Q | n.d. 2.35 n.d. | 2.35 | 0/9 |
| N35S | 0.32 0.60 0.18 | 0.37 | 0/9 |
| Q27D S58C L100M | 3.25 3.10 3.21 | 3.19 | 7/9 (4.62) |
| V39R Y97S | 4.43 n.d. n.d. | 4.43 | 0/9 |
| K24T E32V R34Q | n.d. n.d. 5.03 | 5.03 | 1/9 (3.21) |
| Y31R E61P S103M | 3.63 n.d. 4.37 | 4.00 | 2/9 (4.62) |
| S26K K36C W56C | 1.92 2.01 2.20 | 2.04 | 5/9 (4.41) |
| H98D S103M | 1.24 1.29 1.32 | 1.28 | 1/9 (4.08) |
| A57P Q95N | n.d. 4.00 n.d. | 4.00 | 6/9 (4.20) |
| K24G E32R T59N | n.d. n.d. 4.93 | 4.93 | 3/9 (5.12) |
| S25F S33C R99S | 1.57 2.32 1.79 | 1.90 | 0/9 |
| Q27N N35E Q95W | 1.58 2.42 2.63 | 2.21 | 1/9 (3.70) |
| S28K L30G H98S | n.d. n.d. n.d. | n.d. | 2/9 (4.28) |
| S28H W56L T59L | 1.53 1.60 1.86 | 1.66 | 5/9 (4.01) |
| S33W Q95H L102P | 4.66 3.65 n.d. | 4.15 | 2/9 (3.83) |
| R34E W56A | 1.49 1.35 1.53 | 1.46 | 3/9 (4.45) |
| L30Q E32G | 1.03 1.24 1.13 | 1.13 | 5/9 (4.23) |

For reference, 7 entries of the list once more:

| changes | log10 Kd (nM) by replicate | log10 Kd (nM), mean | signal with controls |
|---|---|---|---|
| S33N T59A S103D | 1.30 1.31 1.47 | 1.36 | 1/9 (5.63) |
| S38K A57F P101S | n.d. n.d. 4.60 | 4.60 | 1/9 (5.14) |
| K24M E61N | 1.86 1.88 1.89 | 1.88 | 0/9 |
| S28Q S33I P101K | n.d. n.d. 3.88 | 3.88 | 2/9 (4.46) |
| S38Y A40G A57G | n.d. n.d. n.d. | n.d. | 0/9 |
| S26A S58F Q96H | n.d. n.d. n.d. | n.d. | 0/9 |
| S33W Q95H L102P | 4.66 3.65 n.d. | 4.15 | 2/9 (3.83) |

Reference: Engelhart et al. 2022, doi:10.1038/s41597-022-01779-4. File: FLAb, binding data.